Sequences of proteins named here, by UniProt entry; tags and fusion partners are left off. Residues count along the entry.
UniProt P42081, 24-247 limits assumed: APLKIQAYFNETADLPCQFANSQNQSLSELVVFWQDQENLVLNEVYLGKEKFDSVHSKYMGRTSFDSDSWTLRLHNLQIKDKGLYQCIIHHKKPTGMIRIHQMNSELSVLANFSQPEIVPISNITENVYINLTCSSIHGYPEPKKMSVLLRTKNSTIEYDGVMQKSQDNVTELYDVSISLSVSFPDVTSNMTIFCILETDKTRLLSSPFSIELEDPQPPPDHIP

According to patent US20120100139A1 (APTEVO RESEARCH AND DEVELOPMENT, published 2012):

Legend:
[1] = molecular target: CD80-mIg (Ancell Catalog #510-020) (UniProt P33681); assay: SPR (BIAcore T100), CD80-mIgG immobilized on CM5; steady-state equilibrium fit
[2] = molecular target: CD80-mIg (Ancell Catalog #510-020) (UniProt P33681); assay: SPR (BIAcore T100), CD80-mIgG immobilized on CM5; bivalent analyte model, first site
[3] = molecular target: CD80-mIg (Ancell Catalog #510-020) (UniProt P33681); assay: SPR (BIAcore T100), CD80-mIgG immobilized on CM5; bivalent analyte model, second site
CD86-mIgG (Ancell, Inc) = CD86-mIgG (Ancell, Inc) (UniProt P42081); assay: SPR (BIAcore T100), CD86-mIgG immobilized on CM5; steady-state equilibrium fit

Substance: abatacept (Orencia, Bristol-Myers Squibb) (Fc fusion)
- Kd [1]: 130 nM
- koff [2]: 0.006 s⁻¹
- kon [2]: 550000 M⁻¹ s⁻¹
- Second Site ka [3]: 0.00019 s⁻¹
- Second Site kd [3]: 0.00094 s⁻¹
- Kd (CD86-mIgG (Ancell, Inc)): 3200 nM
